Assay results published in patent US5691455A, “Gonadotropins with non-native disulfide bridges” (Akzo Nobel N.V., priority 1995, dated 1997).

Key:
[1] = Western blot analysis of intersubunit disulfide formation (SDS solubilisation at 100° C.); format: physicochemical; settings: absence of β-mercapto ethanol, cell culture supernatants, Western blot with β-hCG specific monoclonal antibody
Experimental: FIG. 2: Western blot analysis of cell culture supernatants from hCG interchain 1, hCG interchain 2 and hCG wild type for the expression of hCG (muteins) and formation of intersubunit disulfide bridges. Cell culture supernatants from G418-resistant transfection pools hCG interchain 1, hCG interchain 2 and from rec-hCG wild type containing approx. 0.2 IU hCG were solubilised at room temperature (Panel A) or 100° C. (Panels B and C) in SDS-containing sample buffer in the absence (Panels A and B) or presence of β-mercapto ethanol (Panel C). Following electrophoresis and transfer to PVDF membranes hCG was visualised by incubation with a β-hCG specific mononclonal antibody followed by incubation with a second antibody-HRP conjugate and staining with TMB. […] Addition of reducing agent results in the dissociation into subunits in all three samples (Panel C). The combined data thus lead to the conclusion that both HCG interchain 1 and 2 are stabilised by a intermolecular disulfide bridge.
In order to determine whether the newly introduced cysteines had oxidised into an intersubunit disulfide bond, samples from cell culture supernatants from G418-resistant transfection pools were dissolved by boiling in SDS-containing sample buffer, subjected to SDS-polyacrylamide gel electrophoresis and transferred to a PVDF membrane. hCG was visualised using immunostaining with a monoclonal antibody directed against the β subunit followed by incubation with a second antibody conjugated to horse radish peroxidase (HRP) and staining with tetramethyl benzidine (TMB)/Co^++ /H2 O2. When an intersubunit disulfide bond had formed, boiling of samples in SDS-sample buffer would keep the two subunits together whereas these solubilisation conditions would cause dissociation into subunits in case no disulphide bridge was formed. In control experiments samples were solubilised without reducing agent at room temperature (intact hCG) and by addition of β-mercapto ethanol (βME). In the latter case denaturation into subunits will occur, irrespective of the presence of interchain disulfide bond. […]

mouse Leydig cells = assay: hCG-induced testosterone production in mouse Leydig cells; format: cell-based
Description: hCG induces testosterone production in mouse Leydig cells. An in vitro assay (Van Damme et al., 1974 modified by Mannaerts et al., 1987) is used to determine the hCG bioactivity of the hCG muteins containing the interchain disulphide bonds (FIG. 4). […] Therefore, hCG interchain 1 can be regarded as a full hCG agonist.

LH/CG receptor = assay: LH/CG-receptor binding, displacement of iodinated hCG to rat testis membranes; settings: [125I]hCG, room temperature, 18 h
Experimental: Binding to the LH/CG receptor is the first event in the mechanism of action of hCG. An in vitro receptor assay was used to determine the relative receptor binding potency of hCG interchain muteins by means of displacement of iodinated hCG to rat testis membranes (Rao et al., 1977). For this purpose a fixed amount of [125I]hCG was incubated with rat testis membranes and increasing amounts of sample at room temperature for 18 h. Additional incubations without sample were performed for the assessment of maximal binding. Non-specific binding was determined by adding a 1000 fold excess of unlabeled ligand (Pregnyl, Organon, West Orange, N.J.). Incubation was terminated by diluting the samples 2-fold with ice-cold Tris buffer supplemented with 0.1% BSA and centrifugation at room temperature for 5 rain at 150.000×N.kg-1. After aspiration of the supernatant, radioactivity in the pellet was determined using a gamma counter.

Substance | intact hormone versus dissociation into subunits upon boiling in SDS-containing sample buffer [1] | testosterone production (in vitro hCG bioactivity, signal transducing ability) (mouse Leydig cells) | displacement of iodinated hCG (relative receptor binding potency) (LH/CG receptor) | intact hormone versus dissociation into subunits upon boiling in SDS-containing sample buffer ([1]; listed as WT-hCG)
hCG interchain 1: hCG mutein with non-native intersubunit disulfide bridge Tyr α37 Cys - Ile β33 Cys | detection of intact hormone | same potency as rec-hCG wild type | comparable to rec-hCG wild type | –
rec-hCG wild type: recombinant wild-type hCG expressed in CHO cells, control | dissociates into subunits | – | – | boiling dissociates the hormone into its subunits
